# Tested on: PBMCs
# Test: PHA-induced proliferation of PBMC in the presence of albumin peptides and/or dHSA
# Type: cell-based, human
# Source text: Venous blood was drawn from healthy volunteers or from cancer patients in glass vacuum tubes with acid dextrose citrate solution A as anti-coagulant (Vacutainer, Becton Dickinson, Franklin Lakes, N.J.). Erythrocytes were removed by sedimentation on 2% dextran T500 solution (Amersham Pharmacia Biotech AB, Uppsala, Sweden) in 0.9% NaCl (this step was omitted for cultures with PHA-stimulation-see below). […] For cell cultures with PHA-stimulation, PBMC were washed in Hank's Balanced Salt Solution (HBSS) with 10% autologous plasma instead of RPMI/2% HSA. Cell viability was assessed by exclusion of 0.05% Trypan Blue and was always above 95%. The cell suspension was stained with Turk's solution and the number of lymphocytes and monocytes in the PBMC preparation were counted in a hemocytometer. PBMCs were suspended in RPMI/2% HSA and the cell concentration adjusted to 5×10^5 lymphocytes/ml.
# PBMC from healthy volunteers, were resuspended in RPMI1640 with or without the addition of dHSA and/or albumin peptides, as indicated, at a cell concentration of 5×10^5 lymphocytes/ml. 100 μl of the cell suspension were seeded into round-bottomed microtiter plates (Corning, N.Y., USA) followed by 100 μl of culture medium consisting of RPMI 1640 (Flow Laboratories, Irvine, Scotland) supplemented with 200 IU/ml Penicillin, 200 μg/ml Streptomycin (Flow laboratories) and 20% heat inactivated autologous serum. Phytohemagglutinin (PHA-P, Sigma Chemical Co, St. Louis, Mo.) at a final concentration of 5 or 10 μg/ml was then added.
# All culture conditions were set up in triplicate wells. […] Mean values of disintegrations per minute (dpm) of triplicates were used for the calculations.
substance,measurement,setting,value
"dHSA: Human serum albumin denatured with urea, reduced with dithiothretiol and alkylated with iodoacetamide",effect of dHSA on PHA induced proliferation of PBMCs,"dHSA 8 μg/ml, 5 controls and 4 cancer patients",frequently resulted in stimulation of the proliferative rate
same,effect of dHSA on PHA induced proliferation of PBMCs,"dHSA 8 μg/ml, two healthy controls",significantly increased the proliferative rate
same,effect of dHSA on PHA induced proliferation of PBMCs,"patient P41, especially at PHA 10 μg/ml",inhibited proliferation
